Assay results taken from PubChem BioAssay AID1347073 (National Center for Advancing Translational Sciences (NCATS), 2019).
The entries are a selection whose mix differs from that of the whole data set. Records with an inconclusive call do not appear. The source made the active and inactive calls. Calls follow the shape of the dose curve; as a rule, active = well fitted activation curve with a large enough effect; inconclusive = small, poorly fitted or top-dose-only effect; inactive = no such curve, though single readings can be large or run the other way.

Experiment: qHTS of TDP-43 Inhibitors: NCGC Sytravon Library Screen; also: 0% is about no effect; nearly all actives have a fitted effect of over 55% in size
Conditions: yeast TDP-43 toxicity rescue, BacTiter-Glo growth, 24 h; at 46.1 µM (top of the series)
Source text: The goal of this project is to identify new chemical probes capable of reversing the toxicity associated with TDP-43 which is associated with frontotemporal lobar degeneration and amyotrophic lateral sclerosis. These compounds will provide a complementary approach to deciphering the tangled mechanisms of toxicity and protection that we have uncovered through genome-wide genetic screens and are beginning to uncover in a large-scale proteomics analysis with mass spectroscopy. To this end, a miniaturized assay was developed to be screened against the Molecular Libraries Small Molecule Repository (MLSMR) to discover TDP-43 inhibitors. Please note that in the set-up this yeast-based assay compounds that inhibit as TDP-43, have a read-out as activators. NIH Chemical Genomics Center [NCGC] NIH Molecular Libraries Probe Centers Network [MLPCN] Assay Submitter (PI): Susan Lindquist, Whitehead Institute/MIT MLPCN Grant: R21 NS060957
Dispense 2.5 microL yeast galactose medium per 1536-well plate, pin compound, dispense 2.5 microL TDP-43 expressing yeast in galactose medium at OD600=0.02 (pregrown in raffinose medium to mid-log phase) per well, incubate for 24 hr at 30 deg C, and cell growth will be measured using 5 microL of Bactiter/Glo reagent to entire plate and read using Luminescence Protocol in ViewLux.

Compound | growth rescue (activation)
CCOP(=O)(Nc1cccc2ccccc12)OCC | inactive: -2.3%
Cc1cc(=O)[nH]c(N[N+](=O)[O-])n1 | inactive: -1.48%
O=P(Nc1ccccn1)(c1cccc2ccccc12)c1cccc2ccccc12 | inactive: 6.32%
Cc1ccc(NP(=O)(Oc2ccccc2)Oc2ccccc2)nc1 | inactive: 10.7%
O=[N+]([O-])c1ncn(CCn2ncnc2[N+](=O)[O-])n1 | inactive: 7.36%
NC(=O)c1cc([N+](=O)[O-])cc([N+](=O)[O-])c1N | inactive: -1.17%
O=c1c2cc([N+](=O)[O-])ccc2[nH]c2c([N+](=O)[O-])cc([N+](=O)[O-])cc12 | inactive: -94.7%
CC(=O)NC(SC(=S)N(CC(C)C)CC(C)C)C(Cl)(Cl)Cl (stereo unspecified) | inactive: 4.66%
CCNC(=S)/N=C(\N)N[N+](=O)[O-] | inactive: 3.7%
O=P(Nc1nc2ccccc2s1)(c1ccccc1)c1ccccc1 | inactive: 24.6%
O=P(Nc1ccccn1)(c1ccc(Br)cc1)c1ccc(Br)cc1 | inactive: -1.43%
